Experimental data taken from PubChem BioAssay AID602274 (Sanford-Burnham Center for Chemical Genomics, 2012).
Only a part is listed here, and it is no random draw. Activity calls are given as the source filed them. Rule as the data show it: active = survival enhancement above about 18%; inactive = the rest.

Experiment: enhancers of single-cell hiPSC survival, primary screen, ATPlite luminescence (AID 602274);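 also: cells exposed to compounds for 16 hours before the ATP read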
Details: at 20 µM, active compounds read high, 100% = ROCK inhibitor wells, 0% = DMSO

| Structure (SMILES) | survival enhancement |
| --- | --- |
| CP(=O)(NC(=O)Nc1ccccc1)Oc1ccccc1 (stereo not given) | inactive: -2.6% |
| CCc1ccc(OP(C)(=O)N2CCN(c3ccc([N+](=O)[O-])cc3)CC2)cc1 (stereo not given) | inactive: -0.4% |
| CCOP(C)(=S)SCC(=O)NC(C)C(=O)O (stereo not given) | inactive: 2.6% |
| CCOC(=O)c1ccc(NP(C)(=O)Oc2ccc(OC)cc2)cc1 (stereo not given) | inactive: -0.6% |
| O=[N+]([O-])c1cc([N+](=O)[O-])c(O)c([N+](=O)[O-])c1.c1ccc(Oc2ccncc2)cc1 | inactive: -0.1% |
| CP(=O)(Nc1ccccn1)Oc1ccc(Cl)cc1 (stereo not given) | inactive: -1.1% |
| CCCCOc1ccc(C(=O)NCC2(N3CCCCC3)CCCCC2)cc1OC | inactive: -0.7% |
| CP(=S)(Nn1cnnc1)Oc1ccccc1 (stereo not given) | inactive: -3.2% |
| COc1ccccc1OP(C)(=O)Nc1ccccc1 (stereo not given) | inactive: 2.2% |
| CP(=O)(Nc1ccccc1Br)Oc1ccccc1 (stereo not given) | inactive: 1.3% |
| O=[N+]([O-])c1cc([N+](=O)[O-])c(Nc2cccnc2)c([N+](=O)[O-])c1 | inactive: -2.4% |
| COc1cc(C(=O)NCC2(N3CCOCC3)CCCCC2)ccc1OCC(C)C | inactive: -0.5% |
| Cc1cccc(C)c1OP(C)(N)=O (stereo not given) | inactive: 0.1% |
| CC(C)(C)c1ccc(OP(C)(=O)Nc2ccc(SC(F)(F)F)cc2)cc1 (stereo not given) | inactive: 1.9% |
| O=[N+]([O-])c1ccc2c(c1)C=Nc1ccccc1O2 | inactive: -0.3% |
| CCOC(=O)c1ccc(NP(C)(=O)Oc2ccccc2)cc1 (stereo not given) | inactive: 3.8% |
| Cc1ccc(NP(C)(=O)Oc2ccccc2)c(C)c1 (stereo not given) | inactive: -0.2% |
| COc1ccccc1OP(C)(=O)Nc1ccc(C)cc1 (stereo not given) | inactive: 4.8% |
| COc1ccc(OP(C)(=O)Nc2cccc(F)c2)cc1 (stereo not given) | inactive: 6.1% |
| COc1ccccc1OP(C)(=O)Nc1cc(Cl)ccc1C (stereo not given) | inactive: 2.7% |
| Cc1cc(C)cc(OP(C)(N)=O)c1 (stereo not given) | inactive: -0.3% |
| CCN(CC)CCCOC(=O)C(O)(c1ccccc1)c1ccccc1 | inactive: 0.1% |
| COc1ccccc1-c1ccccn1.O=[N+]([O-])c1cc([N+](=O)[O-])c(O)c([N+](=O)[O-])c1 | inactive: 5.1% |

| Structure (SMILES) | survival enhancement |
| --- | --- |
| COc1ccccc1OP(C)(=O)Nc1cccc(Br)c1 (stereo not given) | inactive: -0.3% |
| COc1cc(C(=O)NCC2(N3CCOCC3)CCCCC2)cc(Cl)c1OC(C)C | inactive: -1.4% |
| Cc1cc(C)cc(OP(C)(=O)Nc2ccc(C)cc2C)c1 (stereo not given) | inactive: -1.4% |
| CCOC(=O)c1ccc(NP(C)(=O)Oc2cc(C)cc(C)c2)cc1 (stereo not given) | inactive: -0.8% |
| Cc1cc(C)cc(OP(C)(=O)Nc2ccccn2)c1 (stereo not given) | inactive: -0.3% |
| CP(=O)(Nc1cccc(Br)c1)Oc1ccccc1 (stereo not given) | inactive: -0.4% |
| Cc1ccc(C)c(NP(C)(=O)Oc2ccccc2)c1 (stereo not given) | inactive: 0.9% |
| O=C(O)c1cccc(Nc2c([N+](=O)[O-])cc([N+](=O)[O-])cc2[N+](=O)[O-])c1 | inactive: -0.1% |
| CC1=NCCc2c1[nH]c1ccccc21.O=[N+]([O-])c1cc([N+](=O)[O-])c(O)c([N+](=O)[O-])c1 | inactive: 6.1% |
| CCOC(=O)C(CC)C1=NC(C)(C)Cc2ccccc21.O=[N+]([O-])c1cc([N+](=O)[O-])c(O)c([N+](=O)[O-])c1 (stereo not given) | inactive: -0.1% |
| CN(C)C1(CNC(=O)c2ccc(S(C)(=O)=O)cc2)CCCCC1 | inactive: -0.3% |
| CC1=C2N=C(C=C3N=C(C(C)=C4[N-][C@@](C)([C@@H]5N=C1[C@](C)(CCC(=O)NC[C@@H](C)OP(=O)([O-])O[C@H]1[C@@H](O)[C@@H](n6cnc7cc(C)c(C)cc76)O[C@@H]1CO)[C@H]5CC(N)=O)[C@@](C)(CC(N)=O)[C@@H]4CCC(N)=O)[C@@](C)(CC(N)=O)[C@@H]3CCC(N)=O)C(C)(C)[C@@H]2CCC(N)=O.[C-]#N.[Co+3] | inactive: -1.2% |
| O=[N+]([O-])c1cc([N+](=O)[O-])c(Nc2nnnn2CCO)c([N+](=O)[O-])c1 | inactive: 0.1% |
| COc1ccccc1OP(C)(=O)Nc1c(C)cccc1C (stereo not given) | inactive: 0.1% |
| CN1CCCCC1COC(=O)C1(O)c2ccccc2CCc2ccccc21 (stereo not given) | inactive: -0.5% |
| CCCOc1ccc(NP(C)(=O)Oc2ccc(Cl)cc2)cc1 (stereo not given) | inactive: -1.4% |
| CP(=O)(Nc1ccc(SC(F)(F)F)cc1)Oc1ccccc1 (stereo not given) | inactive: 1.1% |
| COc1ccc(-c2ccccn2)cc1.O=[N+]([O-])c1cc([N+](=O)[O-])c(O)c([N+](=O)[O-])c1 | inactive: -0.5% |
| O=[N+]([O-])c1cc([N+](=O)[O-])c(-n2nnc3ccccc32)c([N+](=O)[O-])c1 | inactive: -0.4% |
| CN(Cc1cccnc1)C(=O)COc1ccc(Cl)c(Cl)c1.O=[N+]([O-])c1cc([N+](=O)[O-])c(O)c([N+](=O)[O-])c1 | inactive: 1.7% |
| O=[N+]([O-])c1cc([N+](=O)[O-])c(-c2cnn(-c3ccccc3)c2)c([N+](=O)[O-])c1 | inactive: -0.5% |
| Cc1nc2ccc3ccccc3c2s1.O=[N+]([O-])c1cc([N+](=O)[O-])c(O)c([N+](=O)[O-])c1 | inactive: 4.6% |
